From article PMC12455566, “Structural Elucidation and Covalent Modulation of the Autorepressed Orphan Nuclear Receptor NR2F6” (ACS Chemical Biology, 2025) come the findings set out here.

The experiment addresses T1, NR2F6 LBD (Homo sapiens, UniProt P10588).
T1 sequence (P10588 164-404): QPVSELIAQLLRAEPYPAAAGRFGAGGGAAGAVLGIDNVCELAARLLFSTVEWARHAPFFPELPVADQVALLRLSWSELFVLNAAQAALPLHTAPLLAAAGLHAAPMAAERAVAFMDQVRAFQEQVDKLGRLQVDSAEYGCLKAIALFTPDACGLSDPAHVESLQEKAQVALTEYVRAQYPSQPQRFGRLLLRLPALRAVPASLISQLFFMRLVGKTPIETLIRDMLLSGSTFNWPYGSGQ
Briefly: DSF thermal stabilization of NR2F6 LBD by coregulator peptides. Also noted: encoding the human NR2F6 LBD (residues 164-404) with an N-terminal; made in house; host or cells: E. coli BL21(DE3). Particulars: acetylated peptide 100 µM, 1% DMSO, pH 7.5. The experiment is classed as binding. The method, then: Data recorded in triplicate. […] N-terminal […] Tween-20, 0.1% (w/v) BSA, pH 8.0). […] Wells containing […] 1.6.7 NR2F6 Ligation Covalent probes were incubated overnight with 20 μM (mutant) […]-SUMO-NR2F6 LBD in buffer containing 50 mM NaCl, 50 mM Tris pH 8.0 (or pH 7.0, 7.5 and 8.5 for the pH screen), 2 mM DTT, 10 […] 400 μM for TR-FRET dose-response assays and 400 μM for DSF experiments).

Molecules are shown by their SMILES.

Turning to `CC(=O)N1CCC[C@H]1C(=O)N1CCC[C@H]1C(=O)N[C@@H](Cc1ccc(O)cc1)C(=O)N[C@@H](C)C(=O)N[C@@H](CC(=O)O)C(=O)N[C@H](C(=O)N1CCC[C@H]1C(=O)N[C@@H](C)C(=O)N[C@@H](CC(C)C)C(=O)N[C@@H](CCCNC(=N)N)C(=O)N[C@@H](CCC(N)=O)C(=O)N[C@@H](CC(C)C)C(=O)N[C@@H](CO)C(=O)N[C@@H](CCC(=O)O)C(=O)N[C@@H](Cc1ccc(O)cc1)C(=O)N[C@@H](C)C(=O)N[C@@H](CCCNC(=N)N)C(=O)N1CCC[C@H]1C(=O)N[C@@H](Cc1c[nH]cn1)C(=O)N[C@H](C(=O)N[C@@H](C)C(=O)N[C@@H](Cc1ccccc1)C(=O)N[C@@H](CO)C(=O)N1CCC[C@H]1C(N)=O)C(C)C)[C@@H](C)O` [ac-dATRO], the “effect on melting temperature (in words)” value is reported as “did not affect the melting temperature”.
